Source: publication PMC11062922 (Nature Chemical Biology, 2023)

Experiments:
Set-up in all cases: species or system human
MAPK11 = test: Kinobeads competition binding: MAPK11; conditions: target MAPK11
NEK3 = test: Kinobeads competition binding: NEK3; conditions: target NEK3
MAP4K5 = test: Kinobeads competition binding: MAP4K5; conditions: target MAP4K5
MARK2 = test: Kinobeads competition binding: MARK2; conditions: target MARK2
CLK3 = test: Kinobeads competition binding: CLK3; conditions: target CLK3
CAMK4 = test: Kinobeads competition binding: CAMK4; conditions: target CAMK4;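 note: selectivity score: engagement of this protein divided by summed engagement of all targets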
CLK2 = test: Kinobeads competition binding: CLK2; conditions: target CLK2
MAPK1 = test: Kinobeads competition binding: MAPK1; conditions: target MAPK1
MAPK8 = test: Kinobeads competition binding: MAPK8; conditions: target MAPK8
CDC42BPG = test: Kinobeads competition binding: CDC42BPG; conditions: target CDC42BPG
ERBB3 = test: Kinobeads competition binding: ERBB3; conditions: target ERBB3;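 note: selectivity score: engagement of this protein divided by summed engagement of all targets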
NLK = test: Kinobeads competition binding: NLK; conditions: target NLK;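 note: selectivity score: engagement of this protein divided by summed engagement of all targets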
MAP2K2 = test: Kinobeads competition binding: MAP2K2; conditions: target MAP2K2
MAPK9 = test: Kinobeads competition binding: MAPK9; conditions: target MAPK9
IRAK4 = test: Kinobeads competition binding: IRAK4; conditions: target IRAK4
EIF2AK1 = test: Kinobeads competition binding: EIF2AK1; conditions: target EIF2AK1;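 note: share of total target engagement due to this protein at one drug concentration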
BMPR1A = test: Kinobeads competition binding: BMPR1A; conditions: target BMPR1A
MAPK10 = test: Kinobeads competition binding: MAPK10; conditions: target MAPK10
FLT3 = test: Kinobeads two-dose competition binding: FLT3; conditions: target FLT3
CSNK1A1 = test: Kinobeads competition binding: CSNK1A1; conditions: target CSNK1A1
PKM = test: Kinobeads competition binding: PKM; conditions: target PKM
IGF1R = test: Kinobeads competition binding: IGF1R; conditions: target IGF1R;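 note: selectivity score: engagement of this protein divided by summed engagement of all targets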
ADRBK1 = test: Kinobeads competition binding: ADRBK1; conditions: target ADRBK1
MELK = test: Kinobeads competition binding: MELK; conditions: target MELK;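 note: share of total target engagement due to this protein at one drug concentration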
LIMK1 = test: Kinobeads competition binding: LIMK1; conditions: target LIMK1
MERTK = test: Kinobeads competition binding: MERTK; conditions: target MERTK
IRAK1 = test: Kinobeads competition binding: IRAK1; conditions: target IRAK1
MAP3K4 = test: Kinobeads competition binding: MAP3K4; conditions: target MAP3K4;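 note: target engagement share of this target among all targets at its Kdapp concentration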
CDK1 = test: Kinobeads competition binding: CDK1; conditions: target CDK1
DDR2 = test: Kinobeads competition binding: DDR2; conditions: target DDR2;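 note: target engagement share of this target among all targets at its Kdapp concentration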
CDC42BPB = test: Kinobeads competition binding: CDC42BPB; conditions: target CDC42BPB
NEK9 = test: Kinobeads competition binding: NEK9; conditions: target NEK9
CSNK1G1 = test: Kinobeads competition binding: CSNK1G1; conditions: target CSNK1G1;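 note: share of total target engagement due to this protein at one drug concentration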
MYLK3 = test: Kinobeads competition binding: MYLK3; conditions: target MYLK3;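 note: share of all-target engagement taken by this protein at its own Kdapp concentration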
INSR = test: Kinobeads competition binding: INSR; conditions: target INSR;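 note: share of total target engagement due to this protein at one drug concentration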
LIMK2 = test: Kinobeads competition binding: LIMK2; conditions: target LIMK2
CDK9 = test: Kinobeads competition binding: CDK9; conditions: target CDK9
MAP4K1 = test: Kinobeads competition binding: MAP4K1; conditions: target MAP4K1
PIK3C2B = test: Kinobeads competition binding: PIK3C2B; conditions: target PIK3C2B
DDR1 = test: Kinobeads competition binding: DDR1; conditions: target DDR1
GSPT1;GSPT2 = test: Kinobeads competition binding: GSPT1;GSPT2; conditions: target GSPT1;GSPT2
MAP4K3 = test: Kinobeads competition binding: MAP4K3; conditions: target MAP4K3
PIK3CB = test: Kinobeads competition binding: PIK3CB; conditions: target PIK3CB
MAP3K11 = test: Kinobeads competition binding: MAP3K11; conditions: target MAP3K11
MAPK3 = test: Kinobeads competition binding: MAPK3; conditions: target MAPK3

Measured: CATDS

CN(C)C/C=C/C(=O)Nc1cc2c(Nc3ccc(F)c(Cl)c3)ncnc2cc1O[C@H]1CCOC1 [Afatinib]
0: all assays above
